Tests used:
[1] = rats, oral, 50 mg/kg, plasma metformin
[2] = test system: rat hepatocyte primary cultures; experiment: In vitro cleavage assay on rat hepatocyte primary cultures; assay type: in vitro ADME; details: rat hepatocyte culture, over 24 hours
Method: A primary culture of rat hepatocytes, which are close to those of humans for metabolism studies, is used, in a HEPES medium to which a known amount of compound A′V′C′, of the order of one microgram, is added. The products are left in contact for 6 hours, and samples are taken, at 1 hour, 2 hours and 4 hours, on which the supernatant is isolated and the hepatocytes in the pellet are lysed. In these media, the concentrations of active principles A (biguanide) and C (transporter) released are measured. As previously, it is possible to calculate the Vmax and Km of the enzymes involved in the metabolism.
A second assay is carried out on a rat hepatocyte culture, according to the method described above. A slow release of arginine over 24 hours is observed.

## arginine hemisuccinimide-metformin hemisuccinate
[1]
  concentration peak: 2900 ng/mL
[2]
  release of arginine: slow release

Source: patent publication US7265156B2 (Dospharma, priority 2000, dated 2007)
